# Apparent affinities of Ab-14 variants for a coronavirus HR2 peptide

Source: Engelhart et al. 2022 (doi:10.1038/s41597-022-01779-4), MIT Lincoln Laboratory and A-Alpha Bio; data file from the FLAb repository.

Target peptide (SARS-CoV-2 spike, HR2 region): PDVDLGDISGINAS

Parent scFv Ab-14: VH joined to VL by a (GGGGS)3 linker. Changes lie in the light chain CDRs alone.
VH: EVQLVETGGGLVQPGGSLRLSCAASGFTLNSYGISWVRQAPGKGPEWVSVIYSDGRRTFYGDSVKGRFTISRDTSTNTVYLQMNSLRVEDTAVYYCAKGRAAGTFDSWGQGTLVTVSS
VL: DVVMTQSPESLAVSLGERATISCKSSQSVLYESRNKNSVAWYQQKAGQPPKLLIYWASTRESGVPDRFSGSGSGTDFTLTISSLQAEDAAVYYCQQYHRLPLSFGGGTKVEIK

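The starting antibody came from a phage panning campaign against this peptide. Variants in AAYL50 differ from the parent at up to three CDR positions; double and triple changes were sampled at random. Affinity was read by AlphaSeq, a pooled yeast mating assay with surface-displayed partners. The frequency of each diploid, read from paired DNA barcodes, reflects how well the two displayed proteins bind. Each replicate has its own calibration line, from reference interactions of the BCL2 family. Each pool was mated in three replicate cultures.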

Changes read parent residue, position, new residue, counted from the first residue of the VL shown. Values are log10 of the apparent Kd in nM; lower means stronger binding. The mean shown is taken over the replicates in which the pair was detected. "ND" means that the variant was in the library but no mating with the target was seen in that replicate; the authors take this as a sign of poor binding, and no number exists.

Variant S38N+A57V+Q96L showed ND, 3.25, ND (controls 2 of 9).
Variant K36D+N37A showed 0.80, 0.98, 0.97 (mean 0.91; controls 2 of 9).
Variant S33F+R34V+S58F showed ND, 2.48, ND (controls 0 of 9).
Variant Y31F+E32W+R60N showed ND, 2.68, ND (controls 0 of 9).
Variant Q27H showed 0.89, 0.95, 1.01 (mean 0.95; controls 2 of 9).
Variant S25F+Y31D showed 1.19, 1.41, 1.35 (mean 1.32; controls 0 of 9).
Variant K24Q+N35R+K36P showed 2.43, 2.29, 2.50 (mean 2.41; controls 0 of 9).
Variant E32T+E61I+H98R showed ND, ND, ND (controls 1 of 9).
Variant W56S+H98I+S103F showed 0.20, 0.51, 0.34 (mean 0.35; controls 2 of 9).
Variant K24F+Y31P+R99S showed 1.44, 1.59, 1.77 (mean 1.60; controls 0 of 9).
Variant S26M+Q27H+V29N showed 1.40, 1.52, 1.47 (mean 1.46; controls 0 of 9).
Variant Q27H+R34S+S38C showed 1.52, 1.53, 1.72 (mean 1.59; controls 2 of 9).
Variant S25N+V29G+R60L showed 1.54, 1.42, 1.69 (mean 1.55; controls 3 of 9).
Variant V29H+Y31A+V39D showed ND, ND, ND (controls 1 of 9).
Variant Q27E+L30E+V39S showed ND, ND, 4.05 (controls 1 of 9).
Variant L30E+N37T showed 1.24, 1.37, 1.45 (mean 1.35; controls 1 of 9).
Variant K36L+Q95S+S103P showed ND, 2.89, ND (controls 0 of 9).
Variant S28H+R60Q+Q95N showed ND, ND, ND (controls 2 of 9).
Variant K24W+S58G+P101E showed ND, ND, ND (controls 0 of 9).
Variant S33T+N35I+H98I showed ND, ND, 3.82 (controls 0 of 9).
Variant S26Q+S33T+R99P showed ND, ND, ND (controls 0 of 9).
Variant R34F showed 0.20, 0.71, 0.23 (mean 0.38; controls 0 of 9).
Variant N37T+A57P+L102R showed ND, 4.49, ND (controls 0 of 9).
Variant Q27I+S33A+Q95L showed 1.28, 1.34, 2.11 (mean 1.58; controls 0 of 9).
Variant S26P+S28K+N35F showed 2.21, 1.95, 2.13 (mean 2.09; controls 1 of 9).
Variant S26N+N35P+E61M showed ND, 3.19, ND (controls 0 of 9).
Variant N37R+Q95Y+Q96H showed ND, 2.64, ND (controls 0 of 9).
Variant Y31K+S38R+W56V showed ND, ND, 3.44 (controls 1 of 9).
Variant V29C+E61I+S103L showed 2.36, 1.88, 2.79 (mean 2.34; controls 0 of 9).
Variant E32P+S38N+T59Q showed 1.06, 1.15, 0.78 (mean 1.00; controls 0 of 9).
Variant Q27A+E32I+N35P showed 3.14, 4.78, 3.74 (mean 3.89; controls 4 of 9).

A selection of 5 entries from above:

With R34F the result was 0.20, 0.71, 0.23 (mean 0.38; controls 0 of 9).
With S28H+R60Q+Q95N the result was ND, ND, ND (controls 2 of 9).
With E32P+S38N+T59Q the result was 1.06, 1.15, 0.78 (mean 1.00; controls 0 of 9).
With S26M+Q27H+V29N the result was 1.40, 1.52, 1.47 (mean 1.46; controls 0 of 9).
With K36L+Q95S+S103P the result was ND, 2.89, ND (controls 0 of 9).

Parent in this assay: reference entry 0.65, copy in this library 1.68. Nonspecific signal, from three strains lacking the peptide, appeared in 18% of pairings of library AAYL50, centred on 4.19 (5% of these signals below 2.99); values are not corrected for it. The control count says in how many pairings with the empty strains this scFv gave a signal.